From patent US12049483B2, “Selective and noncovalent inhibitors of oncogenic RAS mutants” (New York University, priority 2020, dated 2024)

Experiments:
KRAS(WT) [1] = biological target: T1, KRAS(WT) (Homo sapiens, UniProt P01116); test: BLI binding to KRAS(WT)
T1 construct: KRAS4B residues 1-174 containing G12C, G12V, G12D, G13D, Q61L, WT; made in house; host or cells: E. coli BL21(DE3) with pBirA

KRAS(G12C) [2] = biological target: T2, KRAS(G12C) (Homo sapiens, UniProt P01116, G12C); test: BLI binding to KRAS(G12C); parameters: KRAS4B residues 1-174 containing G12C, G12V, G12D, G13D, Q61L, WT; His6 (N, cleaved yes); Avi-tag (N, cleaved yes); made in house; host or cells: E. coli BL21(DE3)
KRAS(G12V) [3] = biological target: T3, KRAS(G12V) (Homo sapiens, UniProt P01116, G12V); test: BLI binding to KRAS(G12V); conditions: nucleotide state GTPγS
T3 construct: KRAS4B residues 1-174 containing G12C, G12V, G12D, G13D, Q61L, WT; His6 (N, cleaved yes); Avi-tag (N, cleaved yes); made in house; host or cells: E. coli BL21(DE3)

KRAS(G12A) = biological target: T4, KRAS(G12A) (Homo sapiens, UniProt P01116, G12A); test: BLI binding to KRAS(G12A); conditions: GTPγS, equilibrium mode
T4 construct: KRAS4B residues 1-174 containing G12C, G12V, G12D, G13D, Q61L, WT; His6 (N, cleaved yes); Avi-tag (N, cleaved yes); made in house; host or cells: E. coli BL21(DE3)

KRAS(G12S) = biological target: T5, KRAS(G12S) (Homo sapiens, UniProt P01116, G12S); test: BLI binding to KRAS(G12S); conditions: GTPγS, equilibrium mode
T5 construct: KRAS4B residues 1-174 containing G12C, G12V, G12D, G13D, Q61L, WT; His6 (N, cleaved yes); Avi-tag (N, cleaved yes); made in house; host or cells: E. coli BL21(DE3)

HRAS(G12C) 1-166 = biological target: T6, HRAS(G12C) 1-166 (Homo sapiens, UniProt P01112, G12C); test: BLI binding to HRAS(G12C) 1-166
T6 construct: HRAS(WT) and HRAS(G12C) (residues 1-166) used for crystallization; His6 (N, cleaved yes); yeast SUMO (N, cleaved yes); made in house; host or cells: E. coli BL21(DE3)

HRAS(WT) 1-166 = biological target: T7, HRAS(WT) 1-166 (Homo sapiens, UniProt P01112); test: BLI binding to HRAS(WT) 1-166
T7 construct: HRAS(WT) and HRAS(G12C) (residues 1-166) used for crystallization; His6 (N, cleaved yes); yeast SUMO (N, cleaved yes); made in house; host or cells: E. coli BL21(DE3)

KRAS(G12V) [4] = biological target: T3, KRAS(G12V); test: Yeast display binding titration, KRAS(G12V); conditions: GDP-bound
KRAS(WT) [5] = biological target: T1, KRAS(WT); test: Yeast display binding titration, KRAS(WT)
KRAS(G12C) [6] = biological target: T2, KRAS(G12C); test: Yeast display binding titration, KRAS(G12C); parameters: KRAS4B residues 1-174 containing G12C, G12V, G12D, G13D, Q61L, WT; His6 (N, cleaved yes); Avi-tag (N, cleaved yes); made in house; host or cells: E. coli BL21(DE3); conditions: GDP-bound

In the case of “VSSVPTKLEVVAATPTSLLISWDAPAVTVFFYIIAYGETGHGVGAFQAFRVPGSKSTATISGLKPGVDYTITVYARGYSKQGPYKPSPISINYRT [12VC3]”, the Kd (KRAS(WT) [1]; BLI sensorgrams of 12VC3, n=3) is reported as 1780 ± 748 nM and the Kd (KRAS(G12C) [2]; BLI sensorgrams of 12VC3, n=3) is reported as 21 ± 1.6 nM.

For “VSSVPTKLEVVAATPTSLLISWDAPAVTVFFYVITYGETGHGVGAFQAFKVPGSKSTATISGLKPGVDYTITVYARGYSKQGPYKPSPISINYRT [12VC1]”, the Kd (KRAS(G12V) [3]) was ~100 nM and 101 nM, the Kd (KRAS(G12A)) was 718 nM and the Kd (KRAS(G12S)) was 686 nM. The Kd (KRAS(WT) [1]; BLI, GTPγS, equilibrium mode) was 9600 nM, the KD (HRAS(G12C) 1-166; GDP-bound) was “too high to be determined” and the Kd (HRAS(G12C) 1-166; GTPγS bound, measured in duplicate) was 28.3 nM and 35.9 nM. For the same sequence, the KD (HRAS(WT) 1-166) was “too high to be determined”, the “apparent KD” value (KRAS(G12V) [4]) was “too weak to yield meaningful KD” and the “apparent KD” value (KRAS(WT) [5]; GDP-bound) was “too weak to yield meaningful KD”. The “apparent KD” value (KRAS(WT) [5]; GTPγS-bound) was “too weak to yield meaningful KD”, the Kd (KRAS(G12C) [2]; BLI, nucleotide state GTPγS) was 24.7 nM and the “apparent KD” value (KRAS(G12C) [6]) was “too weak to yield meaningful KD”.

Where “and” joins values, the source holds several entries; their conditions need not be identical. Equal entries are not always repeated.
